Source: patent publication US12162901B2, “N-acetylated sialic acids and related sialosides” (priority 2016, dated 2024)
Several values for one entry are separate records, joined by “and”; a condition that tells them apart may be missing. Equal entries are not always repeated.

What was measured:
Assay in all cases: purified protein, by the assay type
Settings in all cases: other: SpNanC, apparent, MES buffer pH 6.5, 37° C., 10 min
[1] = tested on: CC(=O)NC[C@@H](O)[C@@H](O)[C@@H]1O[C@@](O[C@H]2[C@@H](O)[C@@H](CO)O[C@@H](Oc3ccc([N+](=O)[O-])cc3)[C@@H]2O)(C(=O)O)C[C@H](O)[C@H]1NC(C)=O
[2] = tested on: CC(=O)N[C@H]1[C@H]([C@H](O)[C@H](O)CO)O[C@@](O[C@H]2[C@@H](O)[C@@H](CO)O[C@@H](Oc3ccc([N+](=O)[O-])cc3)[C@@H]2O)(C(=O)O)C[C@@H]1O
[3] = tested on: CC(=O)N[C@H]1[C@H]([C@H](O)[C@H](O)COC(C)=O)O[C@@](O[C@H]2[C@@H](O)[C@@H](CO)O[C@@H](Oc3ccc([N+](=O)[O-])cc3)[C@@H]2O)(C(=O)O)C[C@@H]1O

SpNanC (Streptococcus pneumoniae TIGR4)
Km [1]: 2600 ± 400 µM
kcat/Km [1]: 130000 M⁻¹ s⁻¹
Km [2]: 2660 ± 300 µM
kcat/Km [2]: 130000 M⁻¹ s⁻¹ and 137000 M⁻¹ s⁻¹
Km [3]: 1250 ± 200 µM
kcat/Km [3]: 302000 M⁻¹ s⁻¹
